Experimental data: ChEMBL document CHEMBL4387702, “Design and synthesis novel di-carbonyl analogs of curcumin (DACs) act as potent anti-inflammatory agents against LPS-induced acute lung injury (ALI)” (Eur J Med Chem, 2019)

Columns and labels:
RAW264.7 [1] = experiment: Inhibition of MAPK/NFkappaB in ICR mouse RAW264.7 cells assessed as reduction in LPS-induced TNFalpha production pretreated for 0.5 hrs followed by LPS challenge and measured after 24 hrs by ELISA; format: cell-based
RAW264.7 [2] = experiment: Inhibition of MAPK/NFkappaB in ICR mouse RAW264.7 cells assessed as reduction in LPS-induced IL6 production pretreated for 0.5 hrs followed by LPS challenge and measured after 24 hrs by ELISA; format: cell-based

Structure (SMILES)	inhibition (RAW264.7 [1])	inhibition (RAW264.7 [2])
COc1cc(/C=C/C(=O)N2CCC/C(=C\c3cc(OC)c(OC)c(OC)c3)C2=O)ccc1OC(C)=O	Dose-dependent effect	Dose-dependent effect
COc1cc(/C=C/C(=O)N2CCC/C(=C\c3cc(OC)c(OC)c(OC)c3)C2=O)ccc1O	Dose-dependent effect	Dose-dependent effect
